How the values were obtained:
50 other kinases = experiment: Kinase profiling service (Luceome Biotechnologies); type: biochemical; details: 10 μM; tested form: HCl
NCI 60 tumor cell lines = experiment: NCI 60 tumor panel, whole panel statement; details: tested form: HCl
Pgp or MRP = experiment: Pgp / MRP substrate status; details: tested form: HCl
[1] = biological target: epidermal growth factor receptor (EGFR) (Homo sapiens, UniProt P00533); experiment: Kinase inhibition EGFR; type: biochemical; details: tested form: HCl
[2] = biological target: platelet derived growth factor receptor-β (PDGFR-β) (Homo sapiens, UniProt P09619); experiment: Kinase inhibition PDGFRβ; type: biochemical; details: tested form: HCl
[3] = biological target: vascular endothelial growth factor receptor (VEGFR2, Flk-1) (Homo sapiens, UniProt P35968); experiment: Kinase inhibition VEGFR2; type: biochemical; details: tested form: HCl
[4] = test system: colchicine binding site on tubulin; experiment: Inhibition of [3H]colchicine binding; details: compound at 1 μM, tested form: HCl
HS 578T = experiment: NCI 60 tumor panel, tumor cell inhibitory activity; details: Breast Cancer, tested form: HCl
HCT-15 = experiment: NCI 60 tumor panel, tumor cell inhibitory activity; details: Colon Cancer, tested form: HCl
SK-MEL-5 = experiment: NCI 60 tumor panel, tumor cell inhibitory activity; details: Melanoma, tested form: HCl
CAKI-1 = experiment: NCI 60 tumor panel, tumor cell inhibitory activity; details: Renal Cancer, tested form: HCl
IGROVI = experiment: NCI 60 tumor panel, tumor cell inhibitory activity; details: Ovarian cancer, tested form: HCl
SF-268 = experiment: NCI 60 tumor panel, tumor cell inhibitory activity; details: CNS Cancer, tested form: HCl
LOX IMVI = experiment: NCI 60 tumor panel, tumor cell inhibitory activity; details: Melanoma, tested form: HCl
ACHN = experiment: NCI 60 tumor panel, tumor cell inhibitory activity; details: Renal Cancer, tested form: HCl
OVCAR-8 = experiment: NCI 60 tumor panel, tumor cell inhibitory activity; details: Ovarian cancer, tested form: HCl
RXF 393 = experiment: NCI 60 tumor panel, tumor cell inhibitory activity; details: Renal Cancer, tested form: HCl
A498 = experiment: NCI 60 tumor panel, tumor cell inhibitory activity; details: Renal Cancer, tested form: HCl
M14 = experiment: NCI 60 tumor panel, tumor cell inhibitory activity; details: Melanoma, tested form: HCl
786-0 = experiment: NCI 60 tumor panel, tumor cell inhibitory activity; details: Renal Cancer, tested form: HCl
HCT-116 = experiment: NCI 60 tumor panel, tumor cell inhibitory activity; details: Colon Cancer, tested form: HCl
BT-549 = experiment: NCI 60 tumor panel, tumor cell inhibitory activity; details: Breast Cancer, tested form: HCl
COLO 205 = experiment: NCI 60 tumor panel, tumor cell inhibitory activity; details: Colon Cancer, tested form: HCl
SNB-75 = experiment: NCI 60 tumor panel, tumor cell inhibitory activity; details: CNS Cancer, tested form: HCl
OVCAR-3 = experiment: NCI 60 tumor panel, tumor cell inhibitory activity; details: Ovarian cancer, tested form: HCl
MDA-MB-435 = experiment: NCI 60 tumor panel, tumor cell inhibitory activity; details: Melanoma, tested form: HCl
SF-539 = experiment: NCI 60 tumor panel, tumor cell inhibitory activity; details: CNS Cancer, tested form: HCl
K-562 = experiment: NCI 60 tumor panel, tumor cell inhibitory activity; details: Leukemia, tested form: HCl
A549/ATCC = experiment: NCI 60 tumor panel, tumor cell inhibitory activity; details: NSCLC, tested form: HCl
OVCAR-4 = experiment: NCI 60 tumor panel, tumor cell inhibitory activity; details: Ovarian cancer, tested form: HCl
NCI/ADR-RES = experiment: NCI 60 tumor panel, tumor cell inhibitory activity; details: Ovarian cancer, tested form: HCl
MCF7 = experiment: NCI 60 tumor panel, tumor cell inhibitory activity; details: Breast Cancer, tested form: HCl
HT29 = experiment: NCI 60 tumor panel, tumor cell inhibitory activity; details: Colon Cancer, tested form: HCl
SF-295 = experiment: NCI 60 tumor panel, tumor cell inhibitory activity; details: CNS Cancer, tested form: HCl
MOLT-4 = experiment: NCI 60 tumor panel, tumor cell inhibitory activity; details: Leukemia, tested form: HCl
SK-MEL-28 = experiment: NCI 60 tumor panel, tumor cell inhibitory activity; details: Melanoma, tested form: HCl
SK-MEL-2 = experiment: NCI 60 tumor panel, tumor cell inhibitory activity; details: Melanoma, tested form: HCl
HCC-2998 = experiment: NCI 60 tumor panel, tumor cell inhibitory activity; details: Colon Cancer, tested form: HCl
HOP-62 = experiment: NCI 60 tumor panel, tumor cell inhibitory activity; details: NSCLC, tested form: HCl
CCRF-CEM = experiment: NCI 60 tumor panel, tumor cell inhibitory activity; details: Leukemia, tested form: HCl
RPMI-8226 = experiment: NCI 60 tumor panel, tumor cell inhibitory activity; details: Leukemia, tested form: HCl
MDA-MB-231/ATCC = experiment: NCI 60 tumor panel, tumor cell inhibitory activity; details: Breast Cancer, tested form: HCl
HOP-92 = experiment: NCI 60 tumor panel, tumor cell inhibitory activity; details: NSCLC, tested form: HCl
NCI-H322M = experiment: NCI 60 tumor panel, tumor cell inhibitory activity; details: NSCLC, tested form: HCl
NCI-H23 = experiment: NCI 60 tumor panel, tumor cell inhibitory activity; details: NSCLC, tested form: HCl
SK-OV-3 = experiment: NCI 60 tumor panel, tumor cell inhibitory activity; details: Ovarian cancer, tested form: HCl
SW-620 = experiment: NCI 60 tumor panel, tumor cell inhibitory activity; details: Colon Cancer, tested form: HCl
NCI-H460 = experiment: NCI 60 tumor panel, tumor cell inhibitory activity; details: NSCLC, tested form: HCl
PC-3 = experiment: NCI 60 tumor panel, tumor cell inhibitory activity; details: Prostate Cancer, tested form: HCl
SNB-19 = experiment: NCI 60 tumor panel, tumor cell inhibitory activity; details: CNS Cancer, tested form: HCl
UACC-62 = experiment: NCI 60 tumor panel, tumor cell inhibitory activity; details: Melanoma, tested form: HCl
OVCAR-5 = experiment: NCI 60 tumor panel, tumor cell inhibitory activity; details: Ovarian cancer, tested form: HCl
U251 = experiment: NCI 60 tumor panel, tumor cell inhibitory activity; details: CNS Cancer, tested form: HCl
SR = experiment: NCI 60 tumor panel, tumor cell inhibitory activity; details: Leukemia, tested form: HCl
HL-60 (TB) = experiment: NCI 60 tumor panel, tumor cell inhibitory activity; details: Leukemia, tested form: HCl
SN12C = experiment: NCI 60 tumor panel, tumor cell inhibitory activity; details: Renal Cancer, tested form: HCl
DU-145 = experiment: NCI 60 tumor panel, tumor cell inhibitory activity; details: Prostate Cancer, tested form: HCl
UO-31 = experiment: NCI 60 tumor panel, tumor cell inhibitory activity; details: Renal Cancer, tested form: HCl
MDA-MB-468 = experiment: NCI 60 tumor panel, tumor cell inhibitory activity; details: Breast Cancer, tested form: HCl
KM12 = experiment: NCI 60 tumor panel, tumor cell inhibitory activity; details: Colon Cancer, tested form: HCl
NCI-H226 = experiment: NCI 60 tumor panel, tumor cell inhibitory activity; details: NSCLC, tested form: HCl
EKVX = experiment: NCI 60 tumor panel, tumor cell inhibitory activity; details: NSCLC, tested form: HCl

Sequences of proteins named here, by UniProt entry; tags and fusion partners are left off. Residues count along the entry.
UniProt P00533, 25-1210 limits assumed: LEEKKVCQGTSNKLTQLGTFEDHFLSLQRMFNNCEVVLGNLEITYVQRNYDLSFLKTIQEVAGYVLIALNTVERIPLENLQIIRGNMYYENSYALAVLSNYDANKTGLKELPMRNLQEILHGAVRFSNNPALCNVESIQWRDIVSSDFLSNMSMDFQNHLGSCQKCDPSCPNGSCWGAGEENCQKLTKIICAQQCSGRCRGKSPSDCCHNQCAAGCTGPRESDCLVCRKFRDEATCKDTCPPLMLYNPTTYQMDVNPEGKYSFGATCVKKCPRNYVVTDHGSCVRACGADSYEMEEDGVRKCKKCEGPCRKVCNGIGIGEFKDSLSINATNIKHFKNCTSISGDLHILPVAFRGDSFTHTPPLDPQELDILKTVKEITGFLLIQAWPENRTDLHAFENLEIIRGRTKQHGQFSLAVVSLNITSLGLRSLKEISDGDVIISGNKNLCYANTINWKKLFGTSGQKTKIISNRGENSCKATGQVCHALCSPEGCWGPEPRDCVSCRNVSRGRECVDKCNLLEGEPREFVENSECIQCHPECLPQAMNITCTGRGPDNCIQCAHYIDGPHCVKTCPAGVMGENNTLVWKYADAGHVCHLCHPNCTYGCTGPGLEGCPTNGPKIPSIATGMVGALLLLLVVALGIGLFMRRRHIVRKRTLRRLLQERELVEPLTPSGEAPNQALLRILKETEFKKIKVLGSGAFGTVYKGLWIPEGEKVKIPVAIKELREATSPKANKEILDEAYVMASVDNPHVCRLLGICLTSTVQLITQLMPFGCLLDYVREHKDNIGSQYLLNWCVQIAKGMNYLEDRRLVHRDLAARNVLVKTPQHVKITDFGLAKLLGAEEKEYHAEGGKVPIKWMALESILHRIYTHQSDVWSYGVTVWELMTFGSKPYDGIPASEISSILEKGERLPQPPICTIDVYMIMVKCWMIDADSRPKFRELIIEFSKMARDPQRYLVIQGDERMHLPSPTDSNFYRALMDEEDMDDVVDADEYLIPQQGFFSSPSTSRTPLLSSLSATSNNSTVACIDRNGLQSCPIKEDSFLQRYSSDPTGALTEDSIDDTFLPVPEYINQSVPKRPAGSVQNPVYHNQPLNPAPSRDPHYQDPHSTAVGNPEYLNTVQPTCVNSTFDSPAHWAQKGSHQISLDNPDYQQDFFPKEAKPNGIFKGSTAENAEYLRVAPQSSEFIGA
UniProt P09619, 33-1106 limits assumed: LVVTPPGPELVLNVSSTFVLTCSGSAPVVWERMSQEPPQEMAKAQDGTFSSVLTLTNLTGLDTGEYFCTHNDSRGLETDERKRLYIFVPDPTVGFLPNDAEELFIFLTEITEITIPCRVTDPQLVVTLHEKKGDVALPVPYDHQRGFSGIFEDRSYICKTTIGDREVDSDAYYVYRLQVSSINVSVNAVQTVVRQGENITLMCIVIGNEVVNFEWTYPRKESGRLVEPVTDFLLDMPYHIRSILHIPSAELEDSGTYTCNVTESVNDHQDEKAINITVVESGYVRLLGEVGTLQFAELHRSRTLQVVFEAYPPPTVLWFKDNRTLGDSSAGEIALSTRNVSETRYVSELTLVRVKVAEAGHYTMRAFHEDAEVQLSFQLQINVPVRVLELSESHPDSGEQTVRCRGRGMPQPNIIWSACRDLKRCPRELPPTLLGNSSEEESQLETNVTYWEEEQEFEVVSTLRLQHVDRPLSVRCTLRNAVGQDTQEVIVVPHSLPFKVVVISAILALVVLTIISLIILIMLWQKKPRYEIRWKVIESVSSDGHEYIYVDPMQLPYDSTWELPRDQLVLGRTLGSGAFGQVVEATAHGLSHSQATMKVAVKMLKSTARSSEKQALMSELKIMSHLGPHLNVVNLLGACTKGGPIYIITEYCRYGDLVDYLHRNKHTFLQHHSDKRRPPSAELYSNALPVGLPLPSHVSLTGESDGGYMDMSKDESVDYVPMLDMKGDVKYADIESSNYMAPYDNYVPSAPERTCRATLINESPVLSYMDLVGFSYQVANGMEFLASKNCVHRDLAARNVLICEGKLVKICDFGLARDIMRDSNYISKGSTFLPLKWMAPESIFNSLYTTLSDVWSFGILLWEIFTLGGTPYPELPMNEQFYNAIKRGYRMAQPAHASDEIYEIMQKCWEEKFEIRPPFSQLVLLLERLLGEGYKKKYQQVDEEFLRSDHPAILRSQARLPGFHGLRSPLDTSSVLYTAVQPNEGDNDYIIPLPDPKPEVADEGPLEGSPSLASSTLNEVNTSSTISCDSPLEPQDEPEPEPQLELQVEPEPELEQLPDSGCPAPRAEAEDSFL
UniProt P35968, 20-1356 limits assumed: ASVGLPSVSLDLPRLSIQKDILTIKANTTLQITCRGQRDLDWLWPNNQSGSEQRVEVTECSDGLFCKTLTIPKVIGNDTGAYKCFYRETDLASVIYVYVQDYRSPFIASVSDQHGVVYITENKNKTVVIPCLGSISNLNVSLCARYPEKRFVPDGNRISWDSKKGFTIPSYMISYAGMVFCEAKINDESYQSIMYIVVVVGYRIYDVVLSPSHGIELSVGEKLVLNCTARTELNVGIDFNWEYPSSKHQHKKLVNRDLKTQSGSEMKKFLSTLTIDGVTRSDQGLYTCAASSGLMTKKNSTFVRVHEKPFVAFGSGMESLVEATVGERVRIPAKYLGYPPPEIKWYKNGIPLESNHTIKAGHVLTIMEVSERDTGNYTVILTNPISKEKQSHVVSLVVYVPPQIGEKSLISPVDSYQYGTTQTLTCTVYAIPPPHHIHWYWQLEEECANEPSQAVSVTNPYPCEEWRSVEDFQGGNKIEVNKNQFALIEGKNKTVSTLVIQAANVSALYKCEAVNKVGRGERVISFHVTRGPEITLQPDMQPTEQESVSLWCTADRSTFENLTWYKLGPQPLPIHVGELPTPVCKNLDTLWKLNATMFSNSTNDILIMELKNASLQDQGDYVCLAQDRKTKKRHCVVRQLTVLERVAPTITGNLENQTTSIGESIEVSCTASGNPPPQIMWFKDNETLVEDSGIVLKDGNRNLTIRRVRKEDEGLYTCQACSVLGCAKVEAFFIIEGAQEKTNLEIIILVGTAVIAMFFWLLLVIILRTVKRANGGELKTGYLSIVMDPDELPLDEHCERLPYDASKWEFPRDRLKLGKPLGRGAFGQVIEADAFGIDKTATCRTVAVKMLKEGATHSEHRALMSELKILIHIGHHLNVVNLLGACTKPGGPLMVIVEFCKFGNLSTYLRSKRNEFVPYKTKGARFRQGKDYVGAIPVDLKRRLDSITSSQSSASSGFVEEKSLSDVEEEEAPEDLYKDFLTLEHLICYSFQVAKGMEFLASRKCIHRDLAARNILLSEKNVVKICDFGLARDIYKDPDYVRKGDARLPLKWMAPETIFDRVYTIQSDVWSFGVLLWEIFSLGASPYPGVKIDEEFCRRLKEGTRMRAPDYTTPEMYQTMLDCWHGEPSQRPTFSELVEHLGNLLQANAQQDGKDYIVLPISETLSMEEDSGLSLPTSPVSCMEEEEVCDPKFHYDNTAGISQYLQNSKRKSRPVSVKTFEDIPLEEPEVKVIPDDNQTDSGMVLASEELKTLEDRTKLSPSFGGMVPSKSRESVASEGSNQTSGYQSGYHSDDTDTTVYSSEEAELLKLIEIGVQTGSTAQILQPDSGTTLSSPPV

Question: What does the source list for `COc1ccc2c(c1)CCCN2c1nc(C)nc2cc(C)[nH]c12`?
Answer: activity against 50 other kinases (50 other kinases): no activity; GI50 in all the NCI 60 tumor cell lines (in words) (NCI 60 tumor cell lines): 2-digit nanomolar; Pgp or MRP substrate (Pgp or MRP): unlikely to be Pgp or MRP substrates; EGFR kinase inhibition (in words, FIG. 16) ([1]; comparable to sunitinib): potent inhibitors; IC50 ([1]; read-out: kinase inhibition IC50 EGFR): 20200 nM; PDGFR kinase inhibition (in words, FIG. 16) ([2]; comparable to sunitinib): potent inhibitors; IC50 ([2]; read-out: kinase inhibition IC50 PDGFRβ): 82300 nM; Flk-1 (VEGR2) kinase inhibition (in words, FIG. 16) ([3]; comparable to sunitinib): potent inhibitors; IC50 ([3]; read-out: kinase inhibition IC50 VEGFR2): 30600 nM; Inhibition of colchicine binding (1 μM) [4]: 76%; GI50 (HS 578T): 30.2 nM; GI50 (HCT-15): 42.1 nM; GI50 (SK-MEL-5): 48.6 nM; GI50 (CAKI-1): 42.3 nM; GI50 (IGROVI): 47 nM; GI50 (SF-268): 62.6 nM; GI50 (LOX IMVI): 72.5 nM; GI50 (ACHN): 70.1 nM; GI50 (OVCAR-8): 43.9 nM; GI50 (RXF 393): 28.9 nM; GI50 (A498): 24.3 nM; GI50 (M14): 29.4 nM; GI50 (786-0): 63.1 nM; GI50 (HCT-116): 39.2 nM; GI50 (BT-549): 218 nM; GI50 (COLO 205): 27.4 nM; GI50 (SNB-75): 38 nM; GI50 (OVCAR-3): 22.7 nM; GI50 (MDA-MB-435): 17 nM; GI50 (SF-539): 25.4 nM; GI50 (K-562): 41.5 nM; GI50 (A549/ATCC): 40.1 nM; GI50 (OVCAR-4): 96.6 nM; GI50 (NCI/ADR-RES): 29.4 nM; GI50 (MCF7): 38 nM; GI50 (HT29): 37.7 nM; GI50 (SF-295): 16.6 nM; GI50 (MOLT-4): 98.3 nM; GI50 (SK-MEL-28): 74.9 nM; GI50 (SK-MEL-2): 56.5 nM; GI50 (HCC-2998): 86 nM; GI50 (HOP-62): 45.3 nM; GI50 (CCRF-CEM): 35.1 nM; GI50 (RPMI-8226): 42.9 nM; GI50 (MDA-MB-231/ATCC): 101 nM; GI50 (HOP-92): 59.5 nM; GI50 (NCI-H322M): 44.2 nM; GI50 (NCI-H23): 71 nM; GI50 (SK-OV-3): 33.9 nM; GI50 (SW-620): 39.8 nM; GI50 (NCI-H460): 36.9 nM; GI50 (PC-3): 50.4 nM; GI50 (SNB-19): 50.3 nM; GI50 (UACC-62): 48.4 nM; GI50 (OVCAR-5): 60.7 nM; GI50 (U251): 39.9 nM; GI50 (SR): 30.9 nM; GI50 (HL-60 (TB)): 26.2 nM; GI50 (SN12C): 84.9 nM; GI50 (DU-145): 34.9 nM; GI50 (UO-31): 54.3 nM; GI50 (MDA-MB-468): 23.4 nM; GI50 (KM12): 35.6 nM; GI50 (NCI-H226): 82.3 nM; GI50 (EKVX): 99.6 nM

— patent US11618758B2, “Bicyclic and tricyclic pyrimidine tyrosine kinase inhibitors with antitubulin activity and methods of treating a patient” (Duquesne University of the Holy Spirit, priority 2011, dated 2023)
